Measured values taken from patent US6946442B2, “Method of hastening cervical ripening” (priority 1994, dated 2005).

Conditions: 10 and 100 ng/ml gel, protocols A and B
Method: Treatments (Protocols A and B): Mouse recombinant VEGF164 (the murine equivalent of human VEGF165) was dissolved at a concentration of 10 and 100 ng/ml gel. Control animals received applications of gel only. Some animals were injected on day 19 s.c. with 10 mg progesterone receptor antagonist RU486, a protocol which induces in 24 h preterm delivery in 80% of animals.

VEGF
fetal or placental weights among treatment for a given gestational age: no differences
